Tested on: Nrf2−/−, +/− and +/+ mice
Experimental: Mice were anesthetized with isoflurane. […] One minute after insertion of the Hamilton syringe, the solution was administered over 2 minutes and the needle was withdrawn 2 mm per minute. ARE-hPAP+ mice were injected similarly with 0.25M (1 μl), due to differences in background strain sensitivity.
Mice were euthanized with CO2 and perfused with 4% paraformaldehyde. Tissues were post-fixed overnight at 4° C. and cryoprotected in 30% sucrose/PBS. Using a cryostat (Leica), adjacent coronal 20 μm and 50 μm sections were taken for staining with Fluorojade-B and cresyl violet respectively through the entire striatum. […] Lesion size was quantified using the Cavieleri Estimator (Stereoinvestigator; Microbrightfield) on sections 200 μm apart. HPAP histochemistry was measured as previously described (Johnson, D. A., et al., supra, 2002).
Ten days post-injection mice were sacrified and lesion size was measured by cresyl violet staining (FIG. 4A).

O=C(O)CC(=O)O [malonate]
Mice with measurable lesion: Only one

From US7638119B2, “Method of diminishing the symptoms of neurodegenerative disease” (priority 2004, dated 2009)
